{
  "source": "patent US20080200479A1",
  "about": "“Ocaperidone Salts and Pharmaceutical Compositions Containing the Same” (priority 2005, published 2008)",
  "assay": "Solubility of ocaperidone salts and free base in water",
  "settings": "ocaperidone salt solubility study in water; ratio to free base",
  "procedure": "In particular, the solubilities of ocaperidone salts were measured as follows:\nUV/visible spectrophotometer: Agilent 8453E\nVolumetric flask (5 ml, 10 ml, 20 ml, 100 ml) Mechanical pipettes: Biohit (m1000, m200)\nMagnetic stirrer: Heidolph MR3001K\nA suspension of 100 mg of crystalline ocaperidone salt or ocaperidone free base in 1 ml HPLC grade pure water (pH=6) was prepared. The suspension was kept at fixed and controlled temperature (ex: 25° C.) under magnetic stirring for 24 hours. A sample was taken, filtered and the solubility of the ocaperidone salts or ocaperidone free base was measured after 1 h and 24 h. Results are given in g/100 ml.",
  "data": [
    {"substance": "Ocaperidone Succinic Acid Salt [Example 1]", "values": [
      {"measurement": "times more soluble than the ocaperidone free base form", "result": "~357", "unit": "times"}
    ]}
  ]
}
